Chains of the proteins cited; added tags and fusions are not shown.
UniProt P07237, whole entry: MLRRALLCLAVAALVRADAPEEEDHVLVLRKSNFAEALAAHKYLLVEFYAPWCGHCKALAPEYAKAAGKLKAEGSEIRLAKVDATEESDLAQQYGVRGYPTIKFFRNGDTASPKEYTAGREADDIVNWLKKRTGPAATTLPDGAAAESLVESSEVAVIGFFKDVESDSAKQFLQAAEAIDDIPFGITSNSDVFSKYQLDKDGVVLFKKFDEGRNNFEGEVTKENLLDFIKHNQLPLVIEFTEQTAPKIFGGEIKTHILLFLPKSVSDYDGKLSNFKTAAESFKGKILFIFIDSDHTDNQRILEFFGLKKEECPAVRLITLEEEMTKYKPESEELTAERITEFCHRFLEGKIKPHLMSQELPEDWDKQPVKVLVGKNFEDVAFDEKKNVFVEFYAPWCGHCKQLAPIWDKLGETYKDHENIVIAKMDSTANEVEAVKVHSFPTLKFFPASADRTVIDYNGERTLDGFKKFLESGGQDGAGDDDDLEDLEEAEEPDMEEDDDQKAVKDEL

The entries are a selection whose mix differs from that of the whole data set. Calls of active or inactive are those of the source.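 Rule for the calls: active = mean inhibition across replicates of 30% or more, whatever share of single replicates reach that level; inconclusive = mean inhibition below 30% while every single replicate reaches 30%; inactive = the rest.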
Each compound was assayed against Protein disulfide-isomerase (Homo sapiens) (UniProt P07237) (assay: blockers of PDI-driven insulin aggregation – biochemical, turbidity, single point, plate reader, primary screen (AID 588391;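 note: absorbance from insulin aggregation driven by PDI reduction with DTT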)). Conditions: A650, 90 min, at 10 µM, active compounds read high.
In the case of `CCOC(=O)c1ccc(NP(C)(=O)Oc2ccccc2)cc1` (centres undefined), the inhibition is reported as inactive: -0.648%.
`CCN(CC)CCCOC(=O)C(O)(c1ccccc1)c1ccccc1` was tested, and the inhibition was inactive: 0.0095%.
With `CCc1ccc(OP(C)(=O)N2CCN(c3ccc([N+](=O)[O-])cc3)CC2)cc1` (centres undefined) the inhibition was inactive: 4.78%.
In the case of `CP(=O)(NC(=O)Nc1ccccc1)Oc1ccccc1` (centres undefined), the inhibition is reported as inactive: 1.81%.
In the case of `Cc1cc(C)cc(OP(C)(=O)Nc2ccc(SC(F)(F)F)cc2)c1` (centres undefined), the inhibition is reported as inactive: -3.89%.
`Cc1ccc(Nc2c([N+](=O)[O-])cc([N+](=O)[O-])cc2[N+](=O)[O-])cc1` was tested, and the inhibition was inactive: 1.3%.
`Cc1cccc(C)c1OP(C)(=O)Nc1ccc(SC(F)(F)F)cc1` (centres undefined) was tested, and the inhibition was inactive: 4.54%.
With `CP(=O)(Nc1ccc(SC(F)(F)F)cc1)Oc1ccc(Cl)cc1` (centres undefined) the inhibition was inactive: -2.74%.
For `CP(=O)(Oc1ccccc1)OC(c1ccccc1)C(F)(F)F` (centres undefined), the inhibition was inactive: 4.35%.
`CP(=O)(Nc1ccccn1)Oc1ccc(Cl)cc1` (centres undefined) was tested, and the inhibition was inactive: -0.0065%.
`CCOC(=O)c1ccc(NP(C)(=O)Oc2ccc(OC)cc2)cc1` (centres undefined) was tested, and the inhibition was inactive: -2.01%.
`O=[N+]([O-])c1cc([N+](=O)[O-])c(O)c([N+](=O)[O-])c1.c1ccc(Oc2ccncc2)cc1` was tested, and the inhibition was inactive: 0.221%.
With `CCOP(C)(=S)SCC(=O)NC(C)C(=O)O` (centres undefined) the inhibition was inactive: 1.65%.
With `CP(=O)(Nc1ccccc1Br)Oc1ccccc1` (centres undefined) the inhibition was inactive: 9.23%.
For `COc1ccccc1OP(C)(=O)Nc1ccccc1` (centres undefined), the inhibition was inactive: 2.99%.
For `CP(=S)(Nn1cnnc1)Oc1ccccc1` (centres undefined), the inhibition was inactive: 8.05%.
`O=[N+]([O-])c1cc([N+](=O)[O-])c(Nc2nnnn2CCO)c([N+](=O)[O-])c1` was tested, and the inhibition was inactive: 10.6%.
In the case of `CC1=C2N=C(C=C3N=C(C(C)=C4[N-][C@@](C)([C@@H]5N=C1[C@](C)(CCC(=O)NC[C@@H](C)OP(=O)([O-])O[C@H]1[C@@H](O)[C@@H](n6cnc7cc(C)c(C)cc76)O[C@@H]1CO)[C@H]5CC(N)=O)[C@@](C)(CC(N)=O)[C@@H]4CCC(N)=O)[C@@](C)(CC(N)=O)[C@@H]3CCC(N)=O)C(C)(C)[C@@H]2CCC(N)=O.[C-]#N.[Co+3]`, the inhibition is reported as inactive: 2.47%.
For `CCOC(=O)C(CC)C1=NC(C)(C)Cc2ccccc21.O=[N+]([O-])c1cc([N+](=O)[O-])c(O)c([N+](=O)[O-])c1` (centres undefined), the inhibition was inactive: 0.825%.
With `CP(=O)(Nc1ccc(SC(F)(F)F)cc1)Oc1ccccc1` (centres undefined) the inhibition was inactive: -5.95%.
`CCCOc1ccc(NP(C)(=O)Oc2ccc(Cl)cc2)cc1` (centres undefined) was tested, and the inhibition was inactive: 3.87%.
For `COc1ccccc1OP(C)(=O)Nc1c(C)cccc1C` (centres undefined), the inhibition was inactive: 4.89%.
With `CN1CCCCC1COC(=O)C1(O)c2ccccc2CCc2ccccc21` (centres undefined) the inhibition was inactive: -17%.
`O=[N+]([O-])c1cc([N+](=O)[O-])c(-n2nnc3ccccc32)c([N+](=O)[O-])c1` was tested, and the inhibition was inactive: -18.1%.
`Cc1nc2ccc3ccccc3c2s1.O=[N+]([O-])c1cc([N+](=O)[O-])c(O)c([N+](=O)[O-])c1` was tested, and the inhibition was inactive: 0.312%.
With `O=[N+]([O-])c1cc([N+](=O)[O-])c(-c2cnn(-c3ccccc3)c2)c([N+](=O)[O-])c1` the inhibition was inactive: -3.27%.
For `CCOC(=O)c1ccc(NP(C)(=O)Oc2cc(C)cc(C)c2)cc1` (centres undefined), the inhibition was inactive: -1.98%.
`Cc1cc(C)cc(OP(C)(=O)Nc2ccc(C)cc2C)c1` (centres undefined) was tested, and the inhibition was inactive: -10.4%.
In the case of `COc1ccccc1OP(C)(=O)Nc1cccc(Br)c1` (centres undefined), the inhibition is reported as inactive: -4.51%.
With `Cc1ccc(C)c(NP(C)(=O)Oc2ccccc2)c1` (centres undefined) the inhibition was inactive: -5.86%.
With `CP(=O)(Nc1cccc(Br)c1)Oc1ccccc1` (centres undefined) the inhibition was inactive: -5.08%.
In the case of `Cc1cc(C)cc(OP(C)(=O)Nc2ccccn2)c1` (centres undefined), the inhibition is reported as inactive: 2.78%.
In the case of `O=C(O)c1cccc(Nc2c([N+](=O)[O-])cc([N+](=O)[O-])cc2[N+](=O)[O-])c1`, the inhibition is reported as inactive: -1.03%.
`CC1=NCCc2c1[nH]c1ccccc21.O=[N+]([O-])c1cc([N+](=O)[O-])c(O)c([N+](=O)[O-])c1` was tested, and the inhibition was inactive: 1.29%.

From PubChem BioAssay AID588391 (Broad Institute, 2011)
